Results taken from patent US9238653B2, “Antimalarial agents that are inhibitors of dihydroorotate dehydrogenase” (BOARD OF REGENTS, THE UNIVERSITY OF TEXAS SYSTEM, priority 2009, dated 2016).

Chains of the proteins cited; added tags and fusions are not shown. Residues count along the entry.
UniProt Q08210, 24-569 limits assumed: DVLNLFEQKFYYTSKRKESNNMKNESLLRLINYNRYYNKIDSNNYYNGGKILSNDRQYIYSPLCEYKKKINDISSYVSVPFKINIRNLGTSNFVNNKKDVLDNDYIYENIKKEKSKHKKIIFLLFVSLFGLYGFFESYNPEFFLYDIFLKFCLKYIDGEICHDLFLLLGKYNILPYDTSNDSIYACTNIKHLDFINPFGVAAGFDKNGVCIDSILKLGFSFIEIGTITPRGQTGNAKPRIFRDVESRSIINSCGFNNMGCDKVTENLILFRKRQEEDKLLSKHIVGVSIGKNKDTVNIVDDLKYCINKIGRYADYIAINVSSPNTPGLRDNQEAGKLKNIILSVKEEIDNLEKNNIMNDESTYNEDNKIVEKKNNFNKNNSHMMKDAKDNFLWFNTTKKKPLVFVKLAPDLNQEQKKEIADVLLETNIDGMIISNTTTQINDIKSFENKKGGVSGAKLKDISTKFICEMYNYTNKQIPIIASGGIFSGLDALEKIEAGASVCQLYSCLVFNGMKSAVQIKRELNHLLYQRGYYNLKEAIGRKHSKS

Molecular target: pfDHOD (Plasmodium falciparum (isolate 3D7), UniProt Q08210)
Assay: DHOD enzyme inhibition, colorimetric DCIP reduction or direct orotic acid assay
Assay type: biochemical
Method: Reactions are initiated by addition of enzyme to a final concentration in the range of about 5 nM to about 50 nM while maintaining the temperature of a circulating water bath at 25° C.
Assay solutions were prepared as discussed above, except that DCIP is not present and the solution is depleted of oxygen by the inclusion of an oxidase/reductase system, such as, 0.1 mg/ml of glucose oxidase, 0.02 mg/ml catalase and 50 mM glucose. The data obtained was fitted to equation 1, to determine the IC50 values of the representative compounds.

Which IC50 does the source give for `Cc1cc(Nc2ccc(S(F)(F)(F)(F)F)cc2)n2ccnc2n1` here?
The IC50 was 200 nM.
